This is a selection; strong and weak results do not stand in their true shares. Records with an inconclusive call do not appear. Active and inactive are the calls of the source. Calls follow the shape of the dose curve; as a rule, active = well fitted inhibition curve with a large enough effect; inconclusive = small, poorly fitted or top-dose-only effect; inactive = flat fitted curve, though single readings scatter.
Biological target: Luciferin 4-monooxygenase (Photinus pyralis) (UniProt P08659)
Experiment: qHTS profiling assay for firefly luciferase inhibitor/activator using purifed enzyme and Km concentrations of substrates (counterscreen for miR-21 project);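 also: plate controls were vehicle for no effect and reference inhibitor for full effect; nearly all actives have a fitted effect of over 55% in size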
Conditions: purified FLuc, luminescence inhibition; at 57.5 µM (top of the series)

Sequences of proteins named here, by UniProt entry; tags and fusion partners are left off.
UniProt P08659, whole entry: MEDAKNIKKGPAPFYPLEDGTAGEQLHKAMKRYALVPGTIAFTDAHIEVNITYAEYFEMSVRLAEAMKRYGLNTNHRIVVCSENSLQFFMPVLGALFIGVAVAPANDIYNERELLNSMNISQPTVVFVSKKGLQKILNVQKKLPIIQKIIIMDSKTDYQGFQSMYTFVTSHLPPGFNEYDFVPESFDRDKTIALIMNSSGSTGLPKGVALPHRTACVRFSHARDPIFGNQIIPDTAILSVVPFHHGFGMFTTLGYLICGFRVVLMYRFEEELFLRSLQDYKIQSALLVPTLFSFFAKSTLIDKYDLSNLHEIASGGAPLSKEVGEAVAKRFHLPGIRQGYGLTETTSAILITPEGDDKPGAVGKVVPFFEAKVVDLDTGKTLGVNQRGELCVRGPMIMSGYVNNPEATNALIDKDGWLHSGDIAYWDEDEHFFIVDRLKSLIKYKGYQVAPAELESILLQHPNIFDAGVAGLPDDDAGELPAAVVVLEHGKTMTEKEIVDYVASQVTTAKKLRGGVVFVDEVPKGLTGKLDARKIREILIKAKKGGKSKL

Row | SMILES | activity change, negative = inhibition
1 | COc1ccc(OP(C)(=O)Nc2cccc(Br)c2)cc1 (configuration not stated) | inactive: -0.689%
2 | CN(C)CCOC(=O)C(O)(c1ccccc1)C1CCCCC1 (configuration not stated) | inactive: -2.12%
3 | COc1ccc(NP(C)(=O)Oc2ccccc2OC)cc1 (configuration not stated) | inactive: 1.45%
4 | O=[N+]([O-])c1ccc(OP2(=O)COCCO2)cc1 (configuration not stated) | inactive: -1.4%
5 | Cc1cc(-c2cccc3ccccc23)c(C)cn1.O=[N+]([O-])c1cc([N+](=O)[O-])c(O)c([N+](=O)[O-])c1 | inactive: -12.2%
6 | CP(=O)(Nc1ccc(SC(F)(F)F)cc1)Oc1ccc(F)cc1 (configuration not stated) | inactive: 0.165%
7 | CCOP(C)(=S)SCC(=O)NC(C)(CC)C(=O)O (configuration not stated) | inactive: 0.539%
8 | CP(=O)(Nc1ccc2c(c1)OCCO2)Oc1ccccc1 (configuration not stated) | inactive: 0.147%
9 | Cc1ccccc1NP(C)(=O)Nc1ccccc1C | inactive: 5.56%
10 | CP(=O)(Nc1ccccc1F)Oc1ccccc1 (configuration not stated) | inactive: -1.15%
11 | CC(C)c1ccc(OP(C)(=O)Nc2ccc(SC(F)(F)F)cc2)cc1 (configuration not stated) | inactive: 3.88%
12 | O=C(OCCN1CCN(CCOCc2ccccc2)CC1)C(O)(c1ccccc1)c1ccccc1 | inactive: 4.63%
13 | CCOC(=O)c1ccc(NP(C)(=O)Oc2ccc(F)cc2)cc1 (configuration not stated) | inactive: 0.592%
14 | COc1ccc(OP(C)(=O)Nc2ccc(SC(F)(F)F)cc2)cc1 (configuration not stated) | inactive: -2.13%
15 | CCN(CC)CCCOC(=O)C(O)(c1ccccc1)C1CCCCC1 (configuration not stated) | inactive: 5.72%
16 | CP(=O)(Nc1ccccc1)Oc1ccc(F)cc1 (configuration not stated) | inactive: 5.14%
17 | CCCCCOc1ccc(NP(C)(=O)Oc2ccc(Cl)cc2Cl)cc1 (configuration not stated) | inactive: -2.18%
18 | Cc1cc(C)cc(OP(C)(=O)Nc2cccc(C(F)(F)F)c2)c1 (configuration not stated) | inactive: 6.34%
19 | COc1ccccc1OP(C)(=O)Nc1ccc(C)c(C)c1 (configuration not stated) | inactive: -3.46%
20 | COc1ccc(OP(C)(=O)Nc2ccccc2Br)cc1 (configuration not stated) | inactive: 0.499%
21 | CP(=O)(OCCOc1ccccc1)OCCOc1ccccc1 | inactive: -0.665%
22 | CP(=O)(Nc1ccc(Cl)cc1Cl)Oc1ccccc1 (configuration not stated) | inactive: 1.7%
23 | COc1ccccc1OP(C)(=O)Nc1ccc(Br)cc1 (configuration not stated) | inactive: 0.099%
24 | COc1ccc(OP(C)(=O)Nc2ccccn2)cc1 (configuration not stated) | inactive: -0.696%
25 | CN(C)CCOC(=O)C(O)(c1ccccc1)C1CCCC1 (configuration not stated) | inactive: -0.148%
26 | O=[N+]([O-])c1cc([N+](=O)[O-])c(Nc2ccccn2)c([N+](=O)[O-])c1 | inactive: -2.61%
27 | Cc1c(NP(C)(=O)Oc2ccc(C(C)C)cc2)c(=O)n(-c2ccccc2)n1C (configuration not stated) | inactive: -6.01%

— PubChem BioAssay AID588342 (National Center for Advancing Translational Sciences (NCATS), 2011)
